# Reported melting point values for industrial, environmental and drug-like chemicals

The melting point is given in degrees Celsius.
Cells with "–" have no entry in this list.
The databases behind each value are named after "via".

| melting point (°C) | compound | name | via |
|---|---|---|---|
| 180 | O=C(O)c1cc2c(s1)CCCC2 | 4,5,6,7-tetrahydrobenzo[b]thiophene-2-carboxylic acid | OCHEM |
| 179 | CNC(=O)c1cccc(N)c1C | 3-Amino-N,2-dimethylbenzamide | OCHEM |
| 187 | CC(C)(C)c1n[nH]c(=S)n1N | 4-amino-5-tert-butyl-4H-1,2,4-triazole-3-thiol | OCHEM |
| 46 | N#CC=Cc1ccc(Cl)cc1 | 3-(4-Chlorophenyl)-2-propenenitrile | OCHEM |
| 90 | Nc1nc(Cc2ccccc2)cs1 | 4-benzyl-1,3-thiazol-2-amine | OCHEM |
| 137 | Nc1nc(-c2cccs2)cs1 | 4-(Thiophen-2-yl)thiazol-2-amine | OCHEM |
| 93 | O=[N+]([O-])c1ccc(OCc2ccccc2)cc1 | Benzene, 1-nitro-4-(phenylmethoxy)- | OCHEM |
| 58.5 | CC(OC(=O)ON1C(=O)CCC1=O)OC(=O)C(C)C (stereo unspecified) | – | eChemPortal |
| 141 | O=C(O)CCCn1cncn1 | 4-(1H-1,2,4-triazol-1-yl)butanoic acid | OCHEM |
| 145 | CC(=O)CN1C(=O)c2ccccc2S1(=O)=O | – | OCHEM |
| 137.5 | N#Cc1ccc2nc(N)sc2c1 | 2-aminobenzothiazole-6-carbonitrile | OCHEM |
| 242 | O=[N+]([O-])c1ccc2oc(=S)[nH]c2c1 | 5-Nitrobenzo[d]oxazole-2(3H)-thione | OCHEM |
| 79 | COCCNC(=O)CC#N | 2-cyano-N-(2-methoxyethyl)acetamide | OCHEM |
| 153 | CCOc1ccc(S(N)(=O)=O)cc1 | 4-ethoxybenzenesulfonamide | OCHEM |
| 244 | C=C(C)C1CC=C(CO)CC1 (stereo unspecified) | 4-Isopropenylcyclohex-1-en-1-ylmethanol | PubChem |
| 34 | COc1ccc(Cl)cc1C(C)=O | 1-(5-Chloro-2-methoxyphenyl)ethanone | OCHEM |
| 241 | O=C(O)CC1Sc2ccc(Cl)cc2NC1=O (stereo unspecified) | – | OCHEM |
| 72.5 | CC[N+](CC)(CC)CC.O=C([O-])c1ccccc1 | Tetraethylammonium benzoate | eChemPortal |
| 164 | NC(=O)c1ccc(N)cc1Cl | 4-amino-2-chlorobenzamide | OCHEM |
| 94 | CC(C)CCNC(N)=S | (3-Methyl-butyl)-thiourea | OCHEM |
| 144 | CCc1n[nH]c(=S)n1N | 4-amino-5-ethyl-4H-1,2,4-triazole-3-thiol | OCHEM |
| 43 | FC(F)(F)C(F)(F)C(F)(F)C(F)(F)C(F)(F)C(F)(F)C(F)(F)CCI | 1-Iodo-1H,1H,2H,2H-perfluorononane | ChemicalBook |
| 63 | O=C1CCC(C(=O)O)CC1 | 4-Ketocyclohexanecarboxylic acid | OCHEM |
| 222 | O=c1nc(CO)[nH]c2ccccc12 | 2-(hydroxymethyl)quinazolin-4(3h)-one | OCHEM |
| 53.5 | Cc1ccc(C(C)(C)CC(=O)O)cc1 | 3-methyl-3-(4-methylphenyl)butanoic acid | OCHEM |
| 174 | Nc1nnc(Cc2ccccc2)s1 | 5-benzyl-1,3,4-thiadiazol-2-amine | OCHEM |
| 114 | CCOC(=O)c1ccc(-n2c(C)cc(C=O)c2C)cc1 | Ethyl 4-(3-formyl-2,5-dimethyl-1H-pyrrol-1-yl)benzoate | OCHEM |
| 126 | CN(C)S(=O)(=O)c1cccc(N)c1 | 3-amino-n,n-dimethylbenzenesulfonamide | OCHEM |
| 80 | CCN(CC)S(=O)(=O)c1ccc(C(=O)CBr)cc1 | 4-(bromoacetyl)-N,N-diethylbenzenesulfonamide | OCHEM |
| 148 | CN(C)S(=O)(=O)c1cccc(C(=O)O)c1 | 3-(Dimethylsulfamoyl)benzoic acid | OCHEM |
| 55 | CC(C)(C#N)C(=O)O | 2-CYANO-2-METHYLPROPANOIC ACID | OCHEM |
| 83 | OCc1ccc(CCC(F)(F)C(F)(F)C(F)(F)C(F)(F)C(F)(F)C(F)(F)C(F)(F)C(F)(F)F)cc1 | – | ChemicalBook |
| 223 | Nc1nnc(C2CCCCC2)o1 | 5-Cyclohexyl-1,3,4-oxadiazol-2-amine | OCHEM |
| 129 | O=C(CCC(F)(F)C(F)(F)C(F)(F)C(F)(F)C(F)(F)C(F)(F)F)ON1C(=O)CCC1=O | – | ChemicalBook |
| 140 | Nc1nc(CCl)nc(Nc2ccccc2)n1 | 6-(Chloromethyl)-N~2~-phenyl-1,3,5-triazine-2,4-diamine | OCHEM |
| 172 | COc1ccc(N2CC(C(=O)O)CC2=O)cc1 (stereo unspecified) | 1-(4-Methoxyphenyl)-5-oxopyrrolidine-3-carboxylic acid | OCHEM |
| 200 | S=C([S-])NCCNC(=S)[S-].[Mn+2] | Maneb | PubChem |
| 171 | NNC(=O)COc1ccc(Br)cc1 | 2-(4-bromophenoxy)acetohydrazide | OCHEM |
| 40 | COC(=O)COc1ccc(C)cc1OCC(=O)OC | – | eChemPortal |
| 119 | O=C(CCl)N1CCc2ccccc21 | 2-Chloro-1-(2,3-dihydro-1H-indol-1-yl)ethan-1-one | OCHEM |

The 4 highest values of melting point among the entries above:

{"smiles": "C=C(C)C1CC=C(CO)CC1", "stereo": "stereo unspecified", "name": "4-Isopropenylcyclohex-1-en-1-ylmethanol", "melting point (°C)": "244", "via": "PubChem"}
{"smiles": "O=[N+]([O-])c1ccc2oc(=S)[nH]c2c1", "name": "5-Nitrobenzo[d]oxazole-2(3H)-thione", "melting point (°C)": "242", "via": "OCHEM"}
{"smiles": "O=C(O)CC1Sc2ccc(Cl)cc2NC1=O", "stereo": "stereo unspecified", "melting point (°C)": "241", "via": "OCHEM"}
{"smiles": "Nc1nnc(C2CCCCC2)o1", "name": "5-Cyclohexyl-1,3,4-oxadiazol-2-amine", "melting point (°C)": "223", "via": "OCHEM"}

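OPERA's authors assembled the values from existing databases and did not measure them anew. One number stands for a compound and property, with no spread given. Conditions of the individual experiments are not part of the data. The measured form (salt, isomer or mixture) is not always the one drawn. Some entries may be limits or estimates that an upstream database listed as plain numbers.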

From the experimental data distributed with OPERA 2.9.